From PubChem BioAssay (NCI)
Some of these compounds have results that are not shown, active ones among them.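 How tested: cells in 96-well plates exposed to compound for 48 hours at five concentrations. GI50 is the concentration that inhibits growth by half. TGI is the concentration that stops growth completely.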

Assays:
Test in all cases: NCI tumour cell line growth inhibition, 48 h
A498 renal = test system: A498 renal
RXF 393 renal = test system: RXF 393 renal
EKVX NSCLC = test system: EKVX NSCLC
MDA-MB-435 = test system: MDA-MB-435
HCC-2998 colon = test system: HCC-2998 colon
SR leukemia = test system: SR leukemia
TK-10 renal = test system: TK-10 renal
OVCAR-5 ovarian = test system: OVCAR-5 ovarian
LOX IMVI melanoma = test system: LOX IMVI melanoma
HS 578T breast = test system: HS 578T breast
UACC-257 melanoma = test system: UACC-257 melanoma
SW-620 colon = test system: SW-620 colon
SK-OV-3 ovarian = test system: SK-OV-3 ovarian
HT29 colon = test system: HT29 colon
HCT-116 colon = test system: HCT-116 colon
K-562 leukemia = test system: K-562 leukemia
NCI/ADR-RES ovarian = test system: NCI/ADR-RES ovarian
HCT-15 colon = test system: HCT-15 colon
OVCAR-3 ovarian = test system: OVCAR-3 ovarian
COLO 205 colon = test system: COLO 205 colon
U251 CNS = test system: U251 CNS
RPMI-8226 leukemia = test system: RPMI-8226 leukemia
SF-295 CNS = test system: SF-295 CNS
IGROV1 ovarian = test system: IGROV1 ovarian
A549 NSCLC = test system: A549 NSCLC
SNB-75 CNS = test system: SNB-75 CNS
NCI-H226 lung = test system: NCI-H226 lung
CAKI-1 renal = test system: CAKI-1 renal
DU-145 prostate = test system: DU-145 prostate
KM12 colon = test system: KM12 colon
MCF7 breast = test system: MCF7 breast
CCRF-CEM leukemia = test system: CCRF-CEM leukemia
SF-539 CNS = test system: SF-539 CNS
NCI-H522 lung = test system: NCI-H522 lung
MOLT-4 leukemia = test system: MOLT-4 leukemia
SK-MEL-2 melanoma = test system: SK-MEL-2 melanoma
UO-31 renal = test system: UO-31 renal
786-0 renal = test system: 786-0 renal
HOP-62 NSCLC = test system: HOP-62 NSCLC
T-47D breast = test system: T-47D breast
OVCAR-4 ovarian = test system: OVCAR-4 ovarian
NCI-H322M lung = test system: NCI-H322M lung
MDA-MB-231 breast = test system: MDA-MB-231 breast
HOP-92 NSCLC = test system: HOP-92 NSCLC
HL-60(TB) leukemia = test system: HL-60(TB) leukemia
NCI-H460 lung = test system: NCI-H460 lung
PC-3 prostate = test system: PC-3 prostate
OVCAR-8 ovarian = test system: OVCAR-8 ovarian
SF-268 CNS = test system: SF-268 CNS
ACHN renal = test system: ACHN renal
M14 melanoma = test system: M14 melanoma
SK-MEL-28 melanoma = test system: SK-MEL-28 melanoma
NCI-H23 lung = test system: NCI-H23 lung
UACC-62 melanoma = test system: UACC-62 melanoma
SN12C renal = test system: SN12C renal
SK-MEL-5 melanoma = test system: SK-MEL-5 melanoma
SNB-19 CNS = test system: SNB-19 CNS
MALME-3M melanoma = test system: MALME-3M melanoma

With `C#CC(O)(C(=O)OC1CN2CCC1CC2)c1ccccc1` (stereo unspecified) the GI50 (A498 renal) was > 100 µM, the TGI (A498 renal) was > 100 µM and the GI50 (RXF 393 renal) was > 100 µM. For the same molecule, the TGI (RXF 393 renal) was > 100 µM, the GI50 (EKVX NSCLC) was > 100 µM and the TGI (EKVX NSCLC) was > 100 µM. For the same molecule, the GI50 (MDA-MB-435) was > 100 µM, the TGI (MDA-MB-435) was > 100 µM and the GI50 (HCC-2998 colon) was > 100 µM. The TGI (HCC-2998 colon) was > 100 µM, the GI50 (SR leukemia) was > 100 µM and the TGI (SR leukemia) was > 100 µM. For the same molecule, the GI50 (TK-10 renal) was > 100 µM, the TGI (TK-10 renal) was > 100 µM and the GI50 (OVCAR-5 ovarian) was > 100 µM. For the same molecule, the TGI (OVCAR-5 ovarian) was > 100 µM, the GI50 (LOX IMVI melanoma) was > 100 µM and the TGI (LOX IMVI melanoma) was > 100 µM. For the same molecule, the GI50 (HS 578T breast) was > 100 µM, the TGI (HS 578T breast) was > 100 µM and the GI50 (UACC-257 melanoma) was > 100 µM. The TGI (UACC-257 melanoma) was > 100 µM, the GI50 (SW-620 colon) was > 100 µM and the TGI (SW-620 colon) was > 100 µM. The GI50 (SK-OV-3 ovarian) was > 100 µM, the TGI (SK-OV-3 ovarian) was > 100 µM and the GI50 (HT29 colon) was > 100 µM. For the same molecule, the TGI (HT29 colon) was > 100 µM, the GI50 (HCT-116 colon) was > 100 µM and the TGI (HCT-116 colon) was > 100 µM. The GI50 (K-562 leukemia) was > 100 µM, the TGI (K-562 leukemia) was > 100 µM and the GI50 (NCI/ADR-RES ovarian) was > 100 µM. For the same molecule, the TGI (NCI/ADR-RES ovarian) was > 100 µM, the GI50 (HCT-15 colon) was > 100 µM and the TGI (HCT-15 colon) was > 100 µM. For the same molecule, the GI50 (OVCAR-3 ovarian) was > 100 µM, the TGI (OVCAR-3 ovarian) was > 100 µM and the GI50 (COLO 205 colon) was > 100 µM. The TGI (COLO 205 colon) was > 100 µM, the GI50 (U251 CNS) was > 100 µM and the TGI (U251 CNS) was > 100 µM. The GI50 (RPMI-8226 leukemia) was > 100 µM, the TGI (RPMI-8226 leukemia) was > 100 µM and the GI50 (SF-295 CNS) was > 100 µM. For the same molecule, the TGI (SF-295 CNS) was > 100 µM, the GI50 (IGROV1 ovarian) was > 100 µM and the TGI (IGROV1 ovarian) was > 100 µM. For the same molecule, the GI50 (A549 NSCLC) was > 100 µM, the TGI (A549 NSCLC) was > 100 µM and the GI50 (SNB-75 CNS) was > 100 µM. The TGI (SNB-75 CNS) was > 100 µM, the GI50 (NCI-H226 lung) was > 100 µM and the TGI (NCI-H226 lung) was > 100 µM. The GI50 (CAKI-1 renal) was > 100 µM, the TGI (CAKI-1 renal) was > 100 µM and the GI50 (DU-145 prostate) was > 100 µM. The TGI (DU-145 prostate) was > 100 µM, the GI50 (KM12 colon) was > 100 µM and the TGI (KM12 colon) was > 100 µM. For the same molecule, the GI50 (MCF7 breast) was > 100 µM, the TGI (MCF7 breast) was > 100 µM and the GI50 (CCRF-CEM leukemia) was > 100 µM. The TGI (CCRF-CEM leukemia) was > 100 µM, the GI50 (SF-539 CNS) was > 100 µM and the TGI (SF-539 CNS) was > 100 µM. The GI50 (NCI-H522 lung) was > 100 µM, the TGI (NCI-H522 lung) was > 100 µM and the GI50 (MOLT-4 leukemia) was > 100 µM. The TGI (MOLT-4 leukemia) was > 100 µM, the GI50 (SK-MEL-2 melanoma) was > 100 µM and the TGI (SK-MEL-2 melanoma) was > 100 µM. For the same molecule, the GI50 (UO-31 renal) was > 100 µM, the TGI (UO-31 renal) was > 100 µM and the GI50 (786-0 renal) was > 100 µM. The TGI (786-0 renal) was > 100 µM, the GI50 (HOP-62 NSCLC) was > 100 µM and the TGI (HOP-62 NSCLC) was > 100 µM. The GI50 (T-47D breast) was > 100 µM, the TGI (T-47D breast) was > 100 µM and the GI50 (OVCAR-4 ovarian) was > 100 µM. For the same molecule, the TGI (OVCAR-4 ovarian) was > 100 µM, the GI50 (NCI-H322M lung) was > 100 µM and the TGI (NCI-H322M lung) was > 100 µM. The GI50 (MDA-MB-231 breast) was > 100 µM, the TGI (MDA-MB-231 breast) was > 100 µM and the GI50 (HOP-92 NSCLC) was > 100 µM. For the same molecule, the TGI (HOP-92 NSCLC) was > 100 µM, the GI50 (HL-60(TB) leukemia) was > 100 µM and the TGI (HL-60(TB) leukemia) was > 100 µM. For the same molecule, the GI50 (NCI-H460 lung) was > 100 µM, the TGI (NCI-H460 lung) was > 100 µM and the GI50 (PC-3 prostate) was > 100 µM. For the same molecule, the TGI (PC-3 prostate) was > 100 µM, the GI50 (OVCAR-8 ovarian) was > 100 µM and the TGI (OVCAR-8 ovarian) was > 100 µM. For the same molecule, the GI50 (SF-268 CNS) was > 100 µM, the TGI (SF-268 CNS) was > 100 µM and the GI50 (ACHN renal) was > 100 µM. For the same molecule, the TGI (ACHN renal) was > 100 µM, the GI50 (M14 melanoma) was > 100 µM and the TGI (M14 melanoma) was > 100 µM. For the same molecule, the GI50 (SK-MEL-28 melanoma) was > 100 µM, the TGI (SK-MEL-28 melanoma) was > 100 µM and the GI50 (NCI-H23 lung) was > 100 µM. For the same molecule, the TGI (NCI-H23 lung) was > 100 µM, the GI50 (UACC-62 melanoma) was > 100 µM and the TGI (UACC-62 melanoma) was > 100 µM. The GI50 (SN12C renal) was > 100 µM, the TGI (SN12C renal) was > 100 µM and the GI50 (SK-MEL-5 melanoma) was > 100 µM. For the same molecule, the TGI (SK-MEL-5 melanoma) was > 100 µM, the GI50 (SNB-19 CNS) was > 100 µM and the TGI (SNB-19 CNS) was > 100 µM. The GI50 (MALME-3M melanoma) was > 100 µM and the TGI (MALME-3M melanoma) was > 100 µM.
